Source: patent US20020107302A1, “Monomeric dye inkjet printing ink formulations for invisible marking / identification” (priority 2000, published 2002)
Where two headings read alike, the source gives them in different places.

Aluminum phthalocyanine chloride [Dye I]
Solubility or Dispersibility (50/50 acetone/water, 600 ppm dye): Soluble | Solubility or Dispersibility (Acetone, 600 ppm dye): Insoluble | Solubility or Dispersibility (Ethanol, 600 ppm dye): Partially Soluble | Solubility or Dispersibility (Ethyl acetate, 600 ppm dye): Insoluble | Solubility or Dispersibility (Methyl acetate, 600 ppm dye): Insoluble | Solubility or Dispersibility (Methyl ethyl ketone, 600 ppm dye): Insoluble | Solubility or Dispersibility (Propylene glycol with 1% (by weight) Surfynol 465 surfactant, 600 ppm dye): Soluble | Solubility or Dispersibility (Water with 1% ammonium hydroxide, 600 ppm dye): Insoluble | Solubility or Dispersibility (Water, 0.06% (by weight) or 600 ppm dye): Insoluble
